Laboratory results from patent US20240082211A1, “SOLUBLE EPOXIDE HYDROLASE AS A TARGET FOR OCULAR DISEASES” (Indiana University Research and Technology Corporation, priority 2017, published 2024).

Experiments:
[1] = system: choroidal neovascularization; test: Laser-induced choroidal neovascularization (L-CNV) mouse model, CNV lesion volume; conditions: in vivo
sEH = test: Lipid profiling of retina/choroid in L-CNV mice (19,20-EDP/DHDP ratio as sEH activity in vivo); set-up: species or system mouse; conditions: 10 μM intravitreal, 3 days post-laser, vs vehicle treated controls
Procedure: The L-CNV mouse model and injections were performed as previously described. […] Compounds where indicated were injected a single time immediately post-laser treatment, delivered intravitreally using a 33-gauge needle, in a 0.5 μL volume. SH-11037, t-AUCB, or 7 were dissolved in DMSO then diluted in PBS to a final concentration of 0.5% (v/v) DMSO. Vehicle alone (PBS+0.5% (v/v) DMSO) was used as negative control. Mouse anti-VEGF164 antibody (AF-493-NA, R&D Systems) at a 5 ng dose was used as a positive control for inhibition of neovascularization. Eyes were numbed with tetracaine solution before the injection, and triple antibiotic ointment was used immediately after the injection to prevent infection. Lipid Profiling
C57BL/6J mice underwent laser treatment followed by intravitreal injections of 10 μM SH-11037, 10 μM t-AUCB or vehicle control as described above. Mice were sacrificed 3 days post-laser-treatment, eyes were enucleated and retina/choroid layers were immediately separated and stored at −80° C. Lipid profile analysis was performed by the Lipidomics Core Facility at Wayne State University using standard operating procedures developed by the core as previously described (Maddipati, et al. (2011), Prostaglandins Other Lipid Mediators 94, 59-72).

O=C(NC12CC3CC(CC(C3)C1)C2)N[C@H]1CC[C@H](Oc2ccc(C(=O)O)cc2)CC1 (relative stereo) [t-AUCB, trans-4-(4-[3-adamantan-1-yl-ureido]-cyclohexyloxy)-benzoic acid]
CNV lesion vascular volume [1]: dose-dependently suppressed
ratio of 19,20-EDP to 19,20-DHDP in retina/choroid (sEH): partially normalized
